From US12533353B2, “Methods of treatment of cancer comprising CDC7 inhibitors” (CARNA BIOSCIENCES, INC., priority 2018, dated 2026)

Key:
MOLM-13 cells = experiment: Co-treatment combination screen, synergy score, ATPlite; format: cell-based, human; settings: simultaneous combination treatment, 72 hours
Description: (§1) The combination screen was performed using the co-treatment dosing schedule for SRA141 and the partner compound. Both enhancee (SRA141) and enhancer (partner compound) were added at time zero (0 h). Cells were exposed to SRA141 and the enhancer for the entire 72-hour treatment time. All data points were collected via automated processes and were subject to quality control and analyzed using proprietary software.
(§2) The Growth Inhibition (GI) was utilized as a measure of cell growth. GI percentages are calculated by applying the following test and equation: […]
(§3) This formula is derived from the Growth Inhibition calculation used in the National Cancer Institute's NCI-60 high throughput screen. […] These GI calculations were used in all single agent and combination data analysis for the combination screen.
(§4) To measure combination effects in excess of Loewe additivity, a scalar measure was used to characterize the strength of synergistic interaction termed the Synergy Score. The Synergy Score is calculated as: Synergy Score=log fX log fYΣ max(0,Idata)(Idata−ILoewe)
(§5) The fractional inhibition for each component agent and combination point in the matrix is calculated relative to the median of all vehicle-treated control wells. […]

COLO-205 cells = experiment: as above; format: cell-based, human; settings: simultaneous combination treatment, 72 hours
Description: as §1, §2, §3, §4, §5

SMILES: CC1=C(/C=C/C(C)=C/C=C/C(C)=C/C(=O)O)C(C)(C)CCC1 [Tretinoin]
- synergy with SRA141 (MOLM-13 cells): strong synergies

SMILES: CN(Cc1cnc2nc(N)nc(N)c2n1)c1ccc(C(=O)N[C@@H](CCC(=O)O)C(=O)O)cc1 [methotrexate]
- synergy with SRA141 (COLO-205 cells): Strong synergies
